biological target: purified recombinant human sAC protein (Homo sapiens, UniProt Q96PN6); assay: biochemical; type: biochemical; details: 1 mM ATP, 2 mM CaCl2, 4 mM MgCl2, 40 mM NaHCO3
Protocol: Assays for sAC activity using purified protein were performed in 100 μl reactions containing 4 mM MgCl2, 2 mM CaCl2, 1 mM ATP, 40 mM NaHCO3, 50 mM Tris pH 7.5, and 3 mM DTT. Each reaction contained ˜1,000,000 counts of α-^32P labeled ATP.
All in vitro adenylyl cyclase activity assays were performed via the “two-column” method measuring the conversion of [α-^32P] ATP into [^32P] cAMP, as previously described [References 81, 82]. Briefly, human sACt protein [Reference 21] was incubated in buffer containing 50 mM Tris-HCl, pH 7.5, 4 mM MgCl2, 2 mM CaCl2, 1 mM ATP, 3 mM DTT, 40 mM NaHCO3 in the presence of the indicated concentrations of different sAC inhibitors or vehicle (DMSO).

Protein sequences, listed by entry. Tags and fused reporters are not part of them. Lines headed by an entry give the natural chain unless they say otherwise; changes in a name come on top.
UniProt Q96PN6: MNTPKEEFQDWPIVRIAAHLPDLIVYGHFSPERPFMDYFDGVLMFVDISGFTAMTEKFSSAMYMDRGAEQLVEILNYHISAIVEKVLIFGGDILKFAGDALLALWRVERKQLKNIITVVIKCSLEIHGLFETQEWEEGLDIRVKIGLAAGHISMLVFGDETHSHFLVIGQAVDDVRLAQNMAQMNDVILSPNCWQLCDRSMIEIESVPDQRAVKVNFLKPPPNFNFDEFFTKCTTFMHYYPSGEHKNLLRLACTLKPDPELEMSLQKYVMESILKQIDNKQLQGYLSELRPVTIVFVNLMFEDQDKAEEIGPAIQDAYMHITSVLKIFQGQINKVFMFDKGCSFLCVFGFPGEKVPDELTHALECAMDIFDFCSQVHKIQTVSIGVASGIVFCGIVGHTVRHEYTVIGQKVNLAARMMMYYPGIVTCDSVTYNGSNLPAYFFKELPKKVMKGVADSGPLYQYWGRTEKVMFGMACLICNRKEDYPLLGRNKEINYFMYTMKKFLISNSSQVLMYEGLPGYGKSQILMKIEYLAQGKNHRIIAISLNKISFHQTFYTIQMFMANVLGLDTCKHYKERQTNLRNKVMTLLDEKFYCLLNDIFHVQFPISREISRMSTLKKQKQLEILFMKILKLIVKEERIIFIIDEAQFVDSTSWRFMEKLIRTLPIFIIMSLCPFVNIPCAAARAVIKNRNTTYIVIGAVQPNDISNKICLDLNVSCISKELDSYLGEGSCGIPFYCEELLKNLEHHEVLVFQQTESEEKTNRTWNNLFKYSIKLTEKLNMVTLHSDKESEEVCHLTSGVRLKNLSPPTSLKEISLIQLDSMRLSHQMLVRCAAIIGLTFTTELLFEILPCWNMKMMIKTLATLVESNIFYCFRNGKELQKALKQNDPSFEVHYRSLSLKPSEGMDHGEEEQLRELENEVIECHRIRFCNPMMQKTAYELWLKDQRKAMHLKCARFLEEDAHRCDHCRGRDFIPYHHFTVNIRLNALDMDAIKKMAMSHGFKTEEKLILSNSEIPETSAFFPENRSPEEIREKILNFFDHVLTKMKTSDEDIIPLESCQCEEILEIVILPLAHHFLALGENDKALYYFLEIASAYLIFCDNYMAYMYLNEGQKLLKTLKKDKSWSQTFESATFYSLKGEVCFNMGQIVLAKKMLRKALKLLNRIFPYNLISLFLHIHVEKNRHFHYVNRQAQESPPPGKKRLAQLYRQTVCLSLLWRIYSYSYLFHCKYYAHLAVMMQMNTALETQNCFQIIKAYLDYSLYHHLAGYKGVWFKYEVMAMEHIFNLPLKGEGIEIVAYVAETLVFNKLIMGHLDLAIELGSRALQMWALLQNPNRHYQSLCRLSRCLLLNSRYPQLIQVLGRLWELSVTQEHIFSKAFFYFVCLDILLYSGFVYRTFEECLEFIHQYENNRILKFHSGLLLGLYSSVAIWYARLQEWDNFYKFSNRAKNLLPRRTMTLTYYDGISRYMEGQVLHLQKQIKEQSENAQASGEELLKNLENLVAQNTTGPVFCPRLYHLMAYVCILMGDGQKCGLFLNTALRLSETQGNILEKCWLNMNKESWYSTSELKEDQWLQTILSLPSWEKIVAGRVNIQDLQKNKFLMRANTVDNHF

IC50 [µM]	Structure (SMILES)
0.006	Nc1nc(Cl)cc(-c2nn(C(F)F)cc2Cc2cc(CN3CCOCC3)ccc2C2CC2)n1 [Example 157, 4-chloro-6-[4-[[2-cyclopropyl-5-(morpholinomethyl)phenyl]methyl]-1-(difluoromethyl)pyrazol-3-yl]pyrimidin-2-amine]
0.02	Nc1nc(Cl)cc(-c2nn(C(F)F)cc2Cc2ccccc2OC2CCC2)n1 [Example 158]
0.05	Nc1nc(Cl)cc(-c2nn(C(F)F)cc2Cc2ccccc2C2CC2)n1 [Example 159]
0.06	Nc1nc(Cl)cc(-c2nn(C(F)F)cc2Cc2ccccc2OC(F)(F)F)n1 [Example 160]
0.016	COc1ccccc1Cc1cn(C(F)F)nc1-c1cc(Cl)nc(N)n1 [Example 161]
0.012	Cc1oc(=O)oc1COC(=O)[C@H]1COCCN1CCOc1ccccc1Cc1cn(C(F)F)nc1-c1cc(Cl)nc(N)n1 [Example 163]
0.05	Cc1oc(=O)oc1COC(=O)[C@@H]1COCCN1CCOc1ccccc1Cc1cn(C(F)F)nc1-c1cc(Cl)nc(N)n1 [Example 166, (5-methyl-2-oxo-1,3-dioxol-4-yl)methyl (3S)-4-[2-[2-[[3-(2-amino-6-chloro-pyrimidin-4-yl)-1-(difluoromethyl)pyrazol-4-yl]methyl]phenoxy]ethyl]morpholine-3-carboxylate]
0.01	Nc1nc(Cl)cc(-c2nn(C(F)F)cc2Cc2ccccc2OCCN2CCN(CCO)CC2=O)n1 [Example 170, 1-[2-[2-[[3-(2-amino-6-chloro-pyrimidin-4-yl)-1-(difluoromethyl)pyrazol-4-yl]methyl]phenoxy]ethyl]-4-(2-hydroxyethyl)piperazin-2-one]
0.025	Cn1cc(Cc2cc(F)ccc2OCCN2CCNC(=O)C2)c(-c2cc(Cl)nc(N)n2)n1 [Example 171]
0.35	Cn1nc(-c2cc(Cl)nc(N)n2)c(Cc2ccccc2)c1COCC(O)CO (centres unmarked) [Example 172]
0.008	Nc1nc(Cl)cc(-c2nn(C(F)F)cc2Cc2ccccc2OCCN(CCO)CC(=O)O)n1 [Example 173, 2-[2-[2-[[3-(2-amino-6-chloro-pyrimidin-4-yl)-1-(difluoromethyl)pyrazol-4-yl]methyl]phenoxy]ethyl-(2-hydroxyethyl)amino]acetic acid]
0.025	Cn1cc(Cc2cccc(F)c2OCCN2CCNC(=O)C2)c(-c2cc(Cl)nc(N)n2)n1 [Example 174]
0.02	Cn1cc(Cc2ccccc2OCCN2CC(CO)(CCl)C2)c(-c2cc(Cl)nc(N)n2)n1 [Example 175, [1-[2-[2-[[3-(2-amino-6-chloro-pyrimidin-4-yl)-1-methyl-pyrazol-4-yl]methyl]phenoxy]ethyl]-3-(chloromethyl)azetidin-3-yl]methanol]
1.73	Cn1cc(Cc2ccccc2OCCN2CCOCC2)c(-c2cc(C(F)(F)F)nc(N)n2)n1 [Example 176, 4-[1-methyl-4-[[2-(2-morpholinoethoxy)phenyl]methyl]pyrazol-3-yl]-6-(trifluoromethyl)pyrimidin-2-amine]
0.032	Cc1c(Cc2ccccc2OCCN2CCOCC2)c(-c2cc(Cl)nc(N)n2)nn1C [Example 177]
0.467	Nc1nc(Cl)cc(-c2nn(C(F)F)cc2Cc2ccccc2OCCN2CCS(=O)(=O)CC(O)C2)n1 (centres unmarked) [Example 180]
0.03	Nc1nc(Cl)cc(-c2nn(C(F)F)cc2Cc2ccccc2OCCN2CCS(=O)(=O)CC(O)C2)n1 (centres unmarked) [Example 181]

Reference: patent US20240239774A1, “SOLUBLE ADENYLYL CYCLASE (SAC) INHIBITORS AND USES THEREOF” (Cornell University, priority 2021, published 2024)
